Measured values published in patent US6462038B1, “Androgen receptor modulator compounds and methods” (Ligand Pharmaceuticals, Inc., priority 1999, dated 2002).

Amino acid sequences for entries named in this document (tags omitted). A change or cut given only in a name is not applied to a line headed by its entry.
UniProt P10275: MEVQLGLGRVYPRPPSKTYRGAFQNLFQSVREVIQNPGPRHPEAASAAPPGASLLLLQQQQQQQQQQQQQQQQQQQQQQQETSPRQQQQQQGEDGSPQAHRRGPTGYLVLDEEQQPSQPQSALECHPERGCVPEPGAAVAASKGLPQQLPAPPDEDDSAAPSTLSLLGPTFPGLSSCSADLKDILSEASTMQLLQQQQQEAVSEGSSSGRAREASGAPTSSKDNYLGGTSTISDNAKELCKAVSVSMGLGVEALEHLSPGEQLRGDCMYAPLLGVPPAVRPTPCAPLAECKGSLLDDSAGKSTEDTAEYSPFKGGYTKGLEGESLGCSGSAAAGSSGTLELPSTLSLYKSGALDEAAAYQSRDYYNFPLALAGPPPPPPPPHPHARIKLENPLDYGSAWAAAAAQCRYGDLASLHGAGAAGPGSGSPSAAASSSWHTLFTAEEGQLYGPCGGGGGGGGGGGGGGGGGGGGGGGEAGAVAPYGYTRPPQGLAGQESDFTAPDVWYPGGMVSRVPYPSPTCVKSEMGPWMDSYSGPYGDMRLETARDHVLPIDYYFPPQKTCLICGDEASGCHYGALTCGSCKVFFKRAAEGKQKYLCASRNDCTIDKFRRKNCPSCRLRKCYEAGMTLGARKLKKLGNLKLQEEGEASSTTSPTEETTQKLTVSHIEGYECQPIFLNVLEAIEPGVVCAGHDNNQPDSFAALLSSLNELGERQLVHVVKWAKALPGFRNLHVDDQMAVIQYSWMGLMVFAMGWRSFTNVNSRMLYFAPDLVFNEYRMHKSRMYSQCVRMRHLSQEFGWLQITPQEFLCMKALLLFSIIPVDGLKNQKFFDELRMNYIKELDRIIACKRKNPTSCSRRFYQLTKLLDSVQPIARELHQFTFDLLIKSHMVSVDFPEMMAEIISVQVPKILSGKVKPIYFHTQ

Key:
Assay type in all cases: cell-based
hAR [1] = target: T1, hAR (Homo sapiens, UniProt P10275); experiment: co-transfection assay, AR agonist, CV-1 cells; conditions: AR Potency Agon (nM), Table 2
T1 construct: expressed in transfected cells; host or cells: CV-1 cells (African green monkey kidney fibroblasts)

GR = target: T2, GR (Homo sapiens, UniProt P04150); experiment: co-transfection assay, GR antagonist
T2 construct: expressed in transfected cells; host or cells: CV-1 cells
T2 sequence (P04150 1-777): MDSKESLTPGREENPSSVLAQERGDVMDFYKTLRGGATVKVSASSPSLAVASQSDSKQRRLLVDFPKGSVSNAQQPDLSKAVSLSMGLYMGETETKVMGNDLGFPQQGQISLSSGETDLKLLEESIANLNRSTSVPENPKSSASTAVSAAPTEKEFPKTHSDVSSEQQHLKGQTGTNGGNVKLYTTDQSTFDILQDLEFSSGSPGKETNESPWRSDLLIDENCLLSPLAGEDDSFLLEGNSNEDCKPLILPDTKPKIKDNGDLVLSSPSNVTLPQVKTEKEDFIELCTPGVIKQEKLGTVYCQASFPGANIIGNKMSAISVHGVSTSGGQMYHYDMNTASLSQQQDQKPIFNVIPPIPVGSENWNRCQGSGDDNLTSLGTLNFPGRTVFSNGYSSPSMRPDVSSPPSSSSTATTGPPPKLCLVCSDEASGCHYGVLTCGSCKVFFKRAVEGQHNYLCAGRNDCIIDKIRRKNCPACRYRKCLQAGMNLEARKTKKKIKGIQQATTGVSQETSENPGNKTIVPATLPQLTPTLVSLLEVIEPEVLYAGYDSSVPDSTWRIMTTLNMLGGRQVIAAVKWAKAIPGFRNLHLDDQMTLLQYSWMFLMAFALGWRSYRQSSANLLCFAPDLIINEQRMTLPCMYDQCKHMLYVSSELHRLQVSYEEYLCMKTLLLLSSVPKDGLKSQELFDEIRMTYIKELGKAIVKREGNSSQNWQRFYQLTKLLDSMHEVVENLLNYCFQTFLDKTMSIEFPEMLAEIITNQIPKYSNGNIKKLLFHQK

hAR [2] = target: T1, hAR; experiment: co-transfection assay, AR antagonist (in presence of DHT), CV-1 cells
PR [3] = target: T3, PR (Homo sapiens, UniProt P06401); experiment: co-transfection assay, PR agonist
T3 construct: expressed in transfected cells; host or cells: CV-1 cells
T3 sequence (P06401 1-933): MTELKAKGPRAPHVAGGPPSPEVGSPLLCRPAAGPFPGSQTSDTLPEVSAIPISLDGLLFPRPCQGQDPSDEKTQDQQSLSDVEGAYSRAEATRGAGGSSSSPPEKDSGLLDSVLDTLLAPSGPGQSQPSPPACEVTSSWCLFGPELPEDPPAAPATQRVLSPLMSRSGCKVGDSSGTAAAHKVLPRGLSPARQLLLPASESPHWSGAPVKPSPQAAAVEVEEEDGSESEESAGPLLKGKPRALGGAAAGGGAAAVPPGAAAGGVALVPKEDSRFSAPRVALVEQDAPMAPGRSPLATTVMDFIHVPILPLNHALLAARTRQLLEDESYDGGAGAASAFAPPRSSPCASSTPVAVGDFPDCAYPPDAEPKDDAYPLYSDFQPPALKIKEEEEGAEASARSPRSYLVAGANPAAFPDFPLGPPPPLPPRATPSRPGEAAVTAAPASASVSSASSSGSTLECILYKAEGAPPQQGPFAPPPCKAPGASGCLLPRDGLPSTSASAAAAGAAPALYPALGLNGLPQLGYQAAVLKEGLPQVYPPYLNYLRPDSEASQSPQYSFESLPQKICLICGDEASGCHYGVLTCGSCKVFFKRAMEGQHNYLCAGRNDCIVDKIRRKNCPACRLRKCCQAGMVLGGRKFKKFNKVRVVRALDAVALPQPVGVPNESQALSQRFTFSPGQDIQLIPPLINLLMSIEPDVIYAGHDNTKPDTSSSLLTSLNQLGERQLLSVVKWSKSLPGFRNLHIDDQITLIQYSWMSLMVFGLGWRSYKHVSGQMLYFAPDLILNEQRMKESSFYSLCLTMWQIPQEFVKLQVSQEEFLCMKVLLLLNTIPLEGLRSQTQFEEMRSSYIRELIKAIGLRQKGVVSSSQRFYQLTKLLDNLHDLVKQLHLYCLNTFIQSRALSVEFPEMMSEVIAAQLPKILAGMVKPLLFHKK

MR = target: T4, MR (Homo sapiens, UniProt P08235); experiment: co-transfection assay, MR antagonist
T4 construct: expressed in transfected cells; host or cells: CV-1 cells
T4 sequence (P08235 1-984): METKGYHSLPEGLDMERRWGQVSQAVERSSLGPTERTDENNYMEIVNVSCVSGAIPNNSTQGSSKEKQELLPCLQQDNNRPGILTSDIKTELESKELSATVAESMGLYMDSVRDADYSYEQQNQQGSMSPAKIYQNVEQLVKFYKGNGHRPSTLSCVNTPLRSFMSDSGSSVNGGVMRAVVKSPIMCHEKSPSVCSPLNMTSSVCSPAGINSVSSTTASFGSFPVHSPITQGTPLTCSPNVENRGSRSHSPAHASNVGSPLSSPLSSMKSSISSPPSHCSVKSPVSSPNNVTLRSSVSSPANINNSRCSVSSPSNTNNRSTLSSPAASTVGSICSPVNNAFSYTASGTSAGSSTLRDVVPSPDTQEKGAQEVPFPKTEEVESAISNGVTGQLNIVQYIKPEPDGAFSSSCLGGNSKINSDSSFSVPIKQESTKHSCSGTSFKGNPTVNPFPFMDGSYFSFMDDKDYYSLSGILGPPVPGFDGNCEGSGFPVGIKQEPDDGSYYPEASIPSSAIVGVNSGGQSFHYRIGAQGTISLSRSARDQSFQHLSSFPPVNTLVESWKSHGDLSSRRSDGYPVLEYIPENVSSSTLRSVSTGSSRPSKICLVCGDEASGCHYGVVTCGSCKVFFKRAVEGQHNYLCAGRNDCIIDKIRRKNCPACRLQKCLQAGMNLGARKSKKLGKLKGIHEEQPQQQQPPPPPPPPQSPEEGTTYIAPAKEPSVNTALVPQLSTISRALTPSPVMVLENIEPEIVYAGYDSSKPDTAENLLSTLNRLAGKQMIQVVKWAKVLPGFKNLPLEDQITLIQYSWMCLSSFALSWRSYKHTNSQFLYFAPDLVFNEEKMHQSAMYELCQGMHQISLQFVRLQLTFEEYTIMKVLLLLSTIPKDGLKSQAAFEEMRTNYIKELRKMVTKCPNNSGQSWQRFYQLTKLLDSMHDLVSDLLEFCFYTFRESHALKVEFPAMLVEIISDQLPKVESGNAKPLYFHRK

PR [4] = target: T3, PR; experiment: co-transfection assay, PR antagonist (in presence of progesterone)

CCCCN(C)C(=O)CCCCCCCCCC[C@@H]1Cc2cc(O)ccc2[C@H]2CC[C@]3(C)[C@@H](O)CC[C@H]3[C@H]12 [ICI 164, N-butyl-3,17-dihydroxy-N-methyl-(7-alpha,17-beta)-estra-1,3,5(10)-triene-7-undecanamide, reference compound]
EC50 (hAR [1]): > 10000 nM | IC50 (GR): > 10 µM | IC50 (hAR [2]): > 10 µM | EC50 (PR [3]): > 10 µM | IC50 (MR): > 10 µM | IC50 (PR [4]): > 10 µM
